Some compounds may have been tested in ways that are not shown here.
Assays:
rats fed high fat diet = test: NAFLD prevention study (2 weeks high fat diet with concurrent daily DNPME)
Protocol: Rats used for the studies to determine whether DNPME could prevent the development of NAFLD were fed high fat diet and sucrose water for 2 weeks, during which time they were concurrently injected with daily 5 mg/kg IP doses of DNPME in 100% DMSO (250 μl/kg body weight) or vehicle. Rats used for the NAFLD reversal studies were fed high a fat diet and sucrose water for 1 week, then were given daily injections of DNPME or vehicle for 5 days while continuing the high fat diet and sucrose water. To measure caloric intake, the volume of water and weight of food consumed each day were measured, and calorie content was calculated using the known composition of each item.

[1] = Stability under acidic conditions
[2] = high fat diet two weeks, daily 5 mg/kg
[3] = after DNPME 5 mg/kg intraperitoneal injection

## COc1ccc([N+](=O)[O-])cc1[N+](=O)[O-]
Rats fed high fat diet; [2]
  hepatic insulin resistance: prevents
  peripheral muscle insulin resistance: prevents
Rats fed high fat diet; rat, in vivo
  NAFLD: prevents
  glucose intolerance: prevents
  skeletal muscle triglyceride accumulation: prevents
DNPME 5 mg/kg or DNP
  time of peak plasma concentrations of DNP after injection: 4 h
DNPME treatment
  fold by which DNP concentrations are lower than toxic levels of DNP (380 μM): more than 75 fold
After DNPME 5 mg/kg
  DNP concentrations in all tissues: below 10 μM
  tissue distribution of DNPME: accumulated in WAT but not any other tissue
[3]
  peak liver DNP concentrations: 8 µM
  peak plasma DNP concentrations: 5 µM
[1]
  stability under acidic conditions: improved stability
